Source: PubChem BioAssay
In the library only some 1.8% were active in any assay of this set; here they are far more common.
RAD54 branch: inhibitors of human RAD54 branch migration; RAD54 Holliday junction branch migration, FAM/BHQ fluorescence; 360,000 compounds, 0.14% hits; Q92698; inhibition, % at 10.4 µM;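 active = mean normalized replicate activity at least 40 and at least half of replicates scoring 40 or more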;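 also: 0% = median of neutral control wells and 100% = median of positive control wells; inhibitors cause a drop in the FAM fluorescence signal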
UUG fidelity: modulators of start codon recognition fidelity in yeast; AID 602363; hit rate 0.13% among 350,000; activity score, % at 18.7 µM; S. cerevisiae UUG-firefly luciferase reporter, luminescence/redox ratio;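 active = replicate mean at a twofold rise or more, about +100% in these data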;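 note: firefly luciferase made from a UUG start codon reports start codon fidelity; reporter light over untreated wells divided by growth signal over untreated wells; some hits fall short of that in this replicate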
RAD52 inh: blocks human RAD52 DNA annealing; P43351; recombinant RAD52 DNA annealing, FRET fluorescence; inhibition, % at 18.7 µM; 360,000 compounds, 0.46% hits; AID 651710;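 active = every replicate showing at least 50% inhibition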
MLL AF4-AF9 inh: blocks AF4 peptide binding to human AF9. P42568. AlphaScreen, biotin-AF4 peptide binding to FLAG-AF9. inhibition, % at 10 µM. 350,000 compounds, 0.47% hits;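 active = every replicate reaching a set inhibition limit, whatever the replicate mean, cut at about 25% in these data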;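 also: 0% = plate neutral control median and 100% = total signal loss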
SIRT5 block: inhibitors of human sirtuin-5 desuccinylase; 330,000 compounds, 1.1% hits; inhibition, % at 15 µM; Q9NXA8; AID 652115; Purified SirT5, succinyl-peptide AMC, trypsin-coupled fluorescence; in the data active = inhibition above about 15%
E-sel inducer: induces E-selectin expression in human endothelial cells | 260,000 compounds, 0.37% hits | HUVEC E-selectin immunofluorescence imaging; normalized: neutral wells 0, TNF-alpha wells 100 | activation, % at 7.58 µM | AID 686992 | P16581;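 active = mean E-selectin-positive cell signal at least 10% of the positive control, reached in at least 60% of replicates, without over 20% cell loss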
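Read-out: % PE-positive cells | Test system: HUVEC | Doses: One compound dose added by pin transfer | Buffer or medium: EGM-2 over gelatin coat | Signal: Immunofluorescence imaging | Benchmarks: TNF-alpha, DMSO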
An asterisk follows results filed as active.

`Cc1ccccc1S(=O)(=O)N1CC[C@@H]2[C@@H](CO)Nc3ccc(-c4cccc(F)c4)cc3[C@@H]21` gave RAD54 branch 9, UUG fidelity 2, RAD52 inh -24, MLL AF4-AF9 inh 7, SIRT5 block 3 and E-sel inducer 3.
For C[C@@H]1CCCCO[C@H](CN(C)C(=O)C2CCCCC2)[C@@H](C)CN([C@@H](C)CO)C(=O)c2cc(NC(=O)CCC(F)(F)F)ccc2O1 the results were RAD54 branch 1, UUG fidelity 35, RAD52 inh -3, MLL AF4-AF9 inh -1, SIRT5 block 5 and E-sel inducer 0.
`O=C(Nc1ccc2c(c1)[C@H]1C[C@H](CC(=O)N3CCc4ccccc4C3)O[C@H](CO)[C@H]1O2)Nc1ccccc1F` gave RAD54 branch -2, UUG fidelity -6, RAD52 inh 24, MLL AF4-AF9 inh 0, SIRT5 block 15* and E-sel inducer -1.
For O=C(Cc1ccncc1)Nc1ccc2c(c1)[C@H]1C[C@H](CC(=O)N3CCc4ccccc4C3)O[C@H](CO)[C@H]1O2 the results were RAD54 branch 9, RAD52 inh -4, MLL AF4-AF9 inh 25*, SIRT5 block -1 and E-sel inducer 0.
Screening O=C(Nc1ccc2c(c1)[C@H]1C[C@@H](CC(=O)N3CCc4ccccc4C3)O[C@@H](CO)[C@H]1O2)Nc1ccccc1F returned RAD54 branch -6, UUG fidelity -8, RAD52 inh 10, MLL AF4-AF9 inh -4, SIRT5 block 1 and E-sel inducer 0.
`C[C@@H]1CN([C@H](C)CO)C(=O)c2cc(-c3ccccc3)cnc2O[C@H]1CN(C)Cc1cccnc1` gave RAD54 branch 4, UUG fidelity -5, RAD52 inh 1, MLL AF4-AF9 inh -4, SIRT5 block -3 and E-sel inducer 0.
`O=C(Nc1ccc(S(=O)(=O)Nc2nccs2)cc1)c1cccc(F)c1` gave RAD54 branch 1, UUG fidelity -14, RAD52 inh -106, MLL AF4-AF9 inh 0, SIRT5 block 32* and E-sel inducer 0.
CN(C)C(=O)C[C@@H]1CC[C@@H]2[C@H](COC[C@H](O)CN2CC2CCCCC2)O1 was read as RAD54 branch -5, UUG fidelity -9, RAD52 inh -7, MLL AF4-AF9 inh -1, SIRT5 block 0 and E-sel inducer 0.
O=C(CN1CCOCC1)NCC[C@@H]1CC[C@H](NC(=O)Nc2ccc(F)cc2)[C@H](CO)O1 was read as RAD54 branch 7, UUG fidelity -6, RAD52 inh -8, MLL AF4-AF9 inh 0, SIRT5 block 26* and E-sel inducer -2.
For O=C(CN1CCOCC1)NCC[C@@H]1CC[C@@H](NC(=O)Nc2ccc(F)cc2)[C@H](CO)O1 the results were RAD54 branch -3, UUG fidelity -5, RAD52 inh -6, MLL AF4-AF9 inh 0, SIRT5 block 16* and E-sel inducer -2.
Screening O=C(CN1CCOCC1)NCC[C@H]1CC[C@@H](NC(=O)Nc2ccc(F)cc2)[C@@H](CO)O1 returned RAD54 branch 5, UUG fidelity -11, RAD52 inh 9, MLL AF4-AF9 inh 0, SIRT5 block 4 and E-sel inducer 1.
Screening CN(C)CC(=O)Nc1ccc2c(c1)[C@@H]1C[C@@H](CC(=O)NCc3cccnc3)O[C@@H](CO)[C@@H]1O2 returned RAD54 branch 1, UUG fidelity -13, RAD52 inh -7, MLL AF4-AF9 inh 0, SIRT5 block 3 and E-sel inducer 0.
Screening O=C(NCC[C@H]1CC[C@@H](NC(=O)c2ccc3c(c2)OCO3)[C@H](CO)O1)Nc1cc(F)ccc1F returned RAD54 branch 11, UUG fidelity -1, RAD52 inh 4, MLL AF4-AF9 inh 5, SIRT5 block 14 and E-sel inducer 0.
For COc1ccccc1-c1cc(C(=O)NC(C)c2ccccc2)no1 (stereo not given) the results were RAD54 branch 5 and UUG fidelity -23.
`COc1ccccc1-c1cc(C(=O)NC(C)C)no1` gave RAD54 branch -6, UUG fidelity -9, RAD52 inh -6, MLL AF4-AF9 inh 5 and SIRT5 block 22*.
For CO[C@H]1CN(C)C(=O)c2ccc(NC(C)=O)cc2OC[C@@H](C)N(Cc2cccc(F)c2)C[C@H]1C the results were RAD54 branch 11, UUG fidelity 21, RAD52 inh 13, MLL AF4-AF9 inh -8, SIRT5 block 6 and E-sel inducer 0.
C[C@@H]1CN([C@@H](C)CO)C(=O)c2cc(NS(=O)(=O)c3cn(C)cn3)ccc2O[C@@H](C)CCCCO[C@@H]1CN(C)C(=O)Cc1ccccc1 was read as RAD54 branch 10, UUG fidelity -4, RAD52 inh -9, MLL AF4-AF9 inh 0, SIRT5 block -1 and E-sel inducer 0.
C[C@H](CO)N1C[C@H](C)[C@@H](CN(C)C(=O)Cc2ccccc2)OCCCC[C@H](C)Oc2ccc(NS(=O)(=O)c3ccccc3)cc2C1=O was read as RAD54 branch -7, UUG fidelity 5, RAD52 inh -16, MLL AF4-AF9 inh -1, SIRT5 block 3 and E-sel inducer 0.
`C[C@@H]1CCCCO[C@H](CN(C)C(=O)Cc2ccccc2)[C@@H](C)CN([C@H](C)CO)C(=O)c2cc(NS(=O)(=O)c3cn(C)cn3)ccc2O1` gave RAD54 branch -4, UUG fidelity -8, RAD52 inh -8, MLL AF4-AF9 inh -2, SIRT5 block 24* and E-sel inducer 0.
Screening C[C@@H]1CCCCO[C@H](CN(C)C(=O)Cc2ccccc2)[C@H](C)CN([C@H](C)CO)C(=O)c2cc(NS(=O)(=O)c3ccccc3)ccc2O1 returned RAD54 branch -3, UUG fidelity 31, RAD52 inh -9, MLL AF4-AF9 inh -1, SIRT5 block 16* and E-sel inducer 0.

Random excerpt: 3 entries already listed.
Screening O=C(CN1CCOCC1)NCC[C@H]1CC[C@@H](NC(=O)Nc2ccc(F)cc2)[C@@H](CO)O1 returned RAD54 branch 5, UUG fidelity -11, RAD52 inh 9, MLL AF4-AF9 inh 0, SIRT5 block 4 and E-sel inducer 1.
`O=C(Nc1ccc2c(c1)[C@H]1C[C@H](CC(=O)N3CCc4ccccc4C3)O[C@H](CO)[C@H]1O2)Nc1ccccc1F` gave RAD54 branch -2, UUG fidelity -6, RAD52 inh 24, MLL AF4-AF9 inh 0, SIRT5 block 15* and E-sel inducer -1.
`C[C@@H]1CN([C@H](C)CO)C(=O)c2cc(-c3ccccc3)cnc2O[C@H]1CN(C)Cc1cccnc1` gave RAD54 branch 4, UUG fidelity -5, RAD52 inh 1, MLL AF4-AF9 inh -4, SIRT5 block -3 and E-sel inducer 0.

Additional compounds
For CC1CCCCN1CCNC(=O)Cn1nc(-c2ccccc2)ccc1=O (stereo not given) the results were RAD54 branch 10, UUG fidelity -4, RAD52 inh -13, MLL AF4-AF9 inh 8 and SIRT5 block -10.
Screening CCOC(=O)N1CCC(NC(=O)Cn2nc(-c3ccccc3)ccc2=O)CC1 returned RAD54 branch -5, UUG fidelity -7, RAD52 inh -2, MLL AF4-AF9 inh -3 and SIRT5 block 18*.
`CC1CCCCC1NC(=O)Cn1nc(-c2ccccc2)ccc1=O` (stereo not given) gave RAD52 inh -4, MLL AF4-AF9 inh 27* and SIRT5 block 0.
Screening CCc1nc2ccc(C(=O)NCCNC(C)=O)cn2c1N(CC)CCOC returned RAD54 branch 12, UUG fidelity -6, RAD52 inh -7, MLL AF4-AF9 inh 46*, SIRT5 block -4 and E-sel inducer 0.
CC(C)NC(=O)N1CC[C@@H]2[C@H]1c1cc(C#Cc3cccnc3)ccc1N(C)[C@@H]2CO was read as RAD54 branch 6, UUG fidelity 0 and E-sel inducer 0.
